{"source": "paper PMC10082586", "about": "(Cancer chemotherapy and pharmacology, 2022)", "origin": "cited, not measured here", "details": "humans, cited from earlier work", "data": [{"smiles": "C[C@@H]1COCCN1c1cc(-c2ccnn2C)c2ccnc(-c3ccn[nH]3)c2n1", "note": "[BAY-1895344]", "values": [{"measurement": "Clinical dose proportionality of exposure", "setting": "5 to 80 mg administered twice daily", "value": "dose proportional exposure and no evidence of saturable absorption"}, {"measurement": "Clinical adverse events", "value": "severe adverse events, specifically neutropenia and thrombocytopenia"}]}]}
